Earlier results as cited in publication PMC8583936, “Machine Learning Assisted Approach for Finding Novel High Activity Agonists of Human Ectopic Olfactory Receptors” (International Journal of Molecular Sciences, 2021).

Chains of the proteins cited; added tags and fusions are not shown. Lines headed by an entry give the natural chain unless they say otherwise; changes in a name come on top.
UniProt Q9P1Q5: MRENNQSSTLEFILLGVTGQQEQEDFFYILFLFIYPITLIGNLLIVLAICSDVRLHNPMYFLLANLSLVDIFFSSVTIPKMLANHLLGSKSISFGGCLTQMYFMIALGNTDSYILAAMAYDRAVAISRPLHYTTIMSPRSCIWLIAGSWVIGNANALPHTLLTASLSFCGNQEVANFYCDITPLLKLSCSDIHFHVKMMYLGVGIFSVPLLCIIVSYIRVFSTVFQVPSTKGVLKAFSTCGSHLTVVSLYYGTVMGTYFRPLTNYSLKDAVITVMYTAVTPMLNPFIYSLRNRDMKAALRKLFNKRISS

Target: OR1A1 (Homo sapiens, UniProt Q9P1Q5)
Conditions: Table S1; ref Supplement references [1]-[9]; cited from earlier work

Row | Substance | Class (agonist / non-agonist / conflicting info.) for OR1A1
1 | Musk xylol | Agonist
2 | P-Tolyl isobutyrate | Agonist
